# Data published in PubChem BioAssay AID624169 (The Scripps Research Institute Molecular Screening Center, 2012).
# Chains of the proteins cited; added tags and fusions are not shown.
# UniProt P35363, whole entry: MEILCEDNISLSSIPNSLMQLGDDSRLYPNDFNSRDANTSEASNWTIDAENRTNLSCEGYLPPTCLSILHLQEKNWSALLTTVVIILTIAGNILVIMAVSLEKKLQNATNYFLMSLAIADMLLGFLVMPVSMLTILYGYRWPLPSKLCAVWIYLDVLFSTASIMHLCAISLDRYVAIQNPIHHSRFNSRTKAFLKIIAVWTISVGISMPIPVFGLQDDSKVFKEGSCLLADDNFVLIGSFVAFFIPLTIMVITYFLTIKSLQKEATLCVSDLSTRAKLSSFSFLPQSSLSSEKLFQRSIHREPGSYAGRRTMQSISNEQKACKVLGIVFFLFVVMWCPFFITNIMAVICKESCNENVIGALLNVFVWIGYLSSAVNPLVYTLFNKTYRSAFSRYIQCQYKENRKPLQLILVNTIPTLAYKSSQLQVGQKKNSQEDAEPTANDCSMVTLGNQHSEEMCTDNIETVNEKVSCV
# This is a selection; strong and weak results do not stand in their true shares. Active and inactive are the calls of the source.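 The calls were made as follows: active = activation above a run cutoff, the mean activation of all tested compounds plus 3 SD (cut at about 14% in these data); inactive = the rest.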
# Biological target: 5-hydroxytryptamine receptor 2A (Mus musculus) (UniProt P35363)
# Assay: activation of mouse 5-HT2A receptor – cell-based, luminescence, primary screen (AID 624169);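 also: 0% = plate median of compound wells and 100% = 30 µM serotonin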
# Details: CHO-K1 mHTR2A beta-arrestin complementation, at 7.6 µM, stronger effect = higher value, percent of 30 µM serotonin response
row,SMILES,activation
1,O=C(NCC1(N2CCCCC2)CCCCC1)c1cncc(Br)c1,inactive: 1.78%
2,CN1CCC(Nc2cccc(F)c2)CC1,inactive: -6.9%
3,COc1ccc(C(c2nnnn2C2CCCC2)N2CCC(n3c(=O)[nH]c4ccccc43)CC2)cc1 (stereo not given),inactive: -1.78%
4,Cc1ccc(C(=O)NCC2(N(C)C)CCCCC2)o1,inactive: 4.52%
5,CCCOc1ccc(C(=O)NCC2(N(C)C)CCCCC2)cc1OC,inactive: -8.19%
6,CC(C)c1ccc(NC2CCN(C(=O)OC(C)(C)C)CC2)cc1,inactive: -0.02%
7,CCCCn1nnnc1C(c1ccccc1OC(F)(F)F)N1CCC(n2c(=O)[nH]c3ccccc32)CC1 (stereo not given),inactive: 7.21%
8,COc1ccc(CN(CCCl)CCCl)cc1Cl,inactive: -0.36%
9,CN(C)c1cccc(C(=O)NCC2(N3CCCCC3)CCCCC2)c1,inactive: -8.1%
10,COc1cc(OC)c(C(=O)NCC2(N(C)C)CCCCC2)cc1OC,inactive: -2.53%
11,CCC(c1nnnn1C(C)(C)C)N1CCC(n2c(=O)[nH]c3ccccc32)CC1 (stereo not given),inactive: 2.65%
12,O=C(NCC1(N2CCOCC2)CCCCC1)c1cc(F)c(F)cc1Cl,inactive: 6.66%
13,CCCCn1nnnc1C(c1ccnc2ccccc12)N1CCC(n2c(=O)[nH]c3ccccc32)CC1 (stereo not given),inactive: 0.12%
14,O=C(NCC1(N2CCCCC2)CCCCC1)c1cccc(C(F)(F)F)c1,inactive: -3.52%
15,O=C(NCC1(N2CCOCC2)CCCCC1)c1cc(=O)[nH]c2ccccc12,inactive: -1.52%
16,COc1cc(C(=O)NCC2(N3CCCCC3)CCCCC2)ccc1OC(F)F,inactive: -16.2%
17,CCCCn1nnnc1C(c1cccc2ccccc12)N1CCC(n2c(=O)[nH]c3ccccc32)CC1 (stereo not given),inactive: 2.48%
18,COc1ccc(NC2CCN(C(=O)OC(C)(C)C)CC2)cc1,inactive: -1.59%
19,CC(C)c1ccc(C(=O)NCC2(N3CCOCC3)CCCCC2)cc1,inactive: -3.45%
20,CN1CCN(CCOC(=O)C(O)(c2ccccc2)c2ccccc2)CC1,inactive: -3.56%

row,SMILES,activation
1,CC(C)(C)n1nnnc1C(c1ccccc1OC(F)(F)F)N1CCC(n2c(=O)[nH]c3ccccc32)CC1 (stereo not given),inactive: 4.6%
2,O=C(NCC1(N2CCCCC2)CCCCC1)c1ccc(OC(F)F)cc1,inactive: -7.88%
3,CCN1CCC(Nc2ccc(Cl)cc2)CC1,inactive: -4.32%
4,N#CC1(Nc2ccccc2)CCN(CCc2ccccc2)CC1,inactive: -2.13%
5,O=c1[nH]c2ccccc2n1C1CCN(C(c2ccccc2OC(F)(F)F)c2nnnn2C2CCCC2)CC1 (stereo not given),inactive: 4.75%
6,CSc1ccc(C(=O)NCC2(N3CCOCC3)CCCCC2)cc1,inactive: 1.7%
7,O=C(NCC1(N2CCCCC2)CCCCC1)c1cccc([N+](=O)[O-])c1,inactive: -5.75%
8,O=c1[nH]c2ccccc2n1C1CCN(C(c2ccccc2)c2nnnn2C2CCCCC2)CC1 (stereo not given),inactive: -4.13%
9,COc1cc(C(=O)NCC2(N(C)C)CCCCC2)ccc1OC(F)F,inactive: -11.1%
10,CCOC(=O)N1CCC(Nc2cccc(C)c2)CC1,inactive: -4.91%
11,O=c1[nH]c2ccccc2n1C1CCN(C(c2cccc3ccccc23)c2nnnn2C2CCCC2)CC1 (stereo not given),inactive: -1.95%
12,CC(C)(C)n1nnnc1C(c1ccccc1)N1CCC(n2c(=O)[nH]c3ccccc32)CC1 (stereo not given),inactive: -5.24%
13,O=C1CCN(Cc2ccccc2)CC1,inactive: -0.03%
14,CCOc1ccc(C)cc1CN(CCCl)CCCl,inactive: -4.85%
15,O=C(NCC1(N2CCCCC2)CCCCC1)c1ccc(F)cc1,inactive: -6.33%
16,CCCCOc1ccc(C(=O)NCC2(N3CCOCC3)CCCCC2)cc1,inactive: -11.6%
17,O=P1(N(CCCl)CCCl)SCCCS1,inactive: 5.25%
18,CCCCn1nnnc1C(c1cc2ccccc2o1)N1CCC(n2c(=O)[nH]c3ccccc32)CC1 (stereo not given),inactive: 0.88%
19,CCOC(=O)N1CCC(Nc2ccc(F)cc2)CC1,inactive: 4.4%
20,COc1ccc(NC2CCN(CCc3ccccc3)CC2)c(OC)c1,inactive: -3.98%

row,SMILES,activation
1,O=c1[nH]c2ccccc2n1C1CCN(C(c2ccccc2OC(F)(F)F)c2nnnn2C2CCCCC2)CC1 (stereo not given),inactive: -2.67%
2,O=C(NCC1(N2CCCCC2)CCCCC1)c1ccc(Cl)nc1,inactive: -2.51%
3,Cc1cc(C)cc(N(C(=O)c2ccccc2)C2CCN(C(=O)OC(C)(C)C)CC2)c1,inactive: -10.1%
4,O=C(NCC1(N2CCOCC2)CCCCC1)c1cc2ccccc2o1,inactive: -6.84%
5,O=c1[nH]c2ccccc2n1C1CCN(C(c2cc3ccccc3o2)c2nnnn2C2CCCCC2)CC1 (stereo not given),inactive: 0.05%
6,O=C(OC1CN2CCC1CC2)C1c2ccccc2Oc2ccccc21 (stereo not given),inactive: -4.1%
7,N#CC1(Nc2ccccc2)CCN(Cc2ccccc2)CC1,inactive: 0.56%
8,O=C(NCC1(N2CCCCC2)CCCCC1)c1ccc(Cl)s1,inactive: -10.8%
9,COc1ccc(Cl)cc1C(=O)NCC1(N2CCOCC2)CCCCC1,inactive: -3.39%
10,CCOC(=O)N1CCC(Nc2ccc(OC)cc2)CC1,inactive: 0.19%
11,CCCCn1nnnc1C(c1ccc(OC)cc1)N1CCC(n2c(=O)[nH]c3ccccc32)CC1 (stereo not given),inactive: 1.2%
12,COc1ccc(C(=O)NCC2(N3CCCCC3)CCCCC2)cc1,inactive: -13.4%
13,CCC(c1nnnn1C1CCCC1)N1CCC(n2c(=O)[nH]c3ccccc32)CC1 (stereo not given),inactive: -1.57%
14,COc1ccc(C(=O)NCC2(N3CCCCC3)CCCCC2)c(OC)c1OC,inactive: -1.97%
15,CC(C)(C)OC(=O)N1CCC(N(C(=O)c2ccccc2)c2ccc(F)cc2)CC1,inactive: -5.57%
16,O=C(NCC1(N2CCCCC2)CCCCC1)c1ccc(=O)[nH]c1,inactive: 2.92%
17,CCCCn1nnnc1C(c1cccs1)N1CCC(n2c(=O)[nH]c3ccccc32)CC1 (stereo not given),inactive: 3.41%
18,CCCCn1nnnc1C(CC)N1CCC(n2c(=O)[nH]c3ccccc32)CC1 (stereo not given),inactive: 1.79%
19,O=C(NCC1(N2CCCCC2)CCCCC1)c1cccs1,inactive: -7.77%
20,CSc1ccccc1C(=O)NCC1(N2CCCCC2)CCCCC1,inactive: 3.16%
